Each structure is given as a SMILES string.

This series in a line: Cytotoxicity against human TZM-bl cells after 48 hrs by WST-1 assay. Type of series: ADME, cell-based. In a few lines: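 Cells seeded at 10⁴/well with serial compound dilutions; after 48 h WST-1 reagent added and formazan absorbance read at 450 nm. Viability relative to untreated cultures plotted against concentration; CC₅₀ from non-linear regression.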
For orientation: Tetrazolium assays rely on reduction of a dye to a coloured formazan, in cell work by metabolically active cells.
Consider `CC(C)C[C@@H]1NC(=O)CNC(=O)[C@H](CC(C)C)NC(=O)[C@H](CO)NC(=O)[C@H](CCCCN)NC(=O)[C@@H]2CSSC[C@@H](C(=O)N[C@H](C(N)=O)C(C)C)NC(=O)[C@H](C)NC(=O)[C@@H]3CSSC[C@H](NC(=O)[C@H](Cc4ccccc4)NC(=O)[C@H](Cc4cnc[nH]4)NC(=O)[C@H](CC(C)C)NC(=O)[C@H](CC(N)=O)NC(=O)CCSSC[C@H](NC(=O)[C@H](CCCNC(=N)N)NC(=O)CNC(=O)[C@H](CC(C)C)NC1=O)C(=O)N[C@@H](C)C(=O)N1CCC[C@@H]1C(=O)N[C@@H]([C@@H](C)O)C(=O)N[C@@H](Cc1ccc(OCC4CCCCC4)cc1)C(=O)N3)C(=O)N[C@@H](CCC(N)=O)C(=O)N[C@@H](CC(C)C)C(=O)N[C@@H](CCCNC(=N)N)C(=O)N2`, for which the half-maximal cytotoxic concentration (CC50) at 48 h is above 50 µM.
The result for `CC(C)C[C@@H]1NC(=O)CNC(=O)[C@H](CC(C)C)NC(=O)[C@H](CO)NC(=O)[C@H](CCCCN)NC(=O)[C@@H]2CSSC[C@@H](C(=O)N[C@H](C(N)=O)C(C)C)NC(=O)[C@H](C)NC(=O)[C@@H]3CSSC[C@H](NC(=O)[C@H](Cc4ccccc4)NC(=O)[C@H](Cc4cnc[nH]4)NC(=O)[C@H](CC(C)C)NC(=O)[C@H](CC(N)=O)NC(=O)CCSSC[C@H](NC(=O)[C@H](CCCNC(=N)N)NC(=O)CNC(=O)[C@H](CC(C)C)NC1=O)C(=O)N[C@@H](C)C(=O)N1CCC[C@@H]1C(=O)N[C@@H]([C@@H](C)O)C(=O)N[C@@H](Cc1ccc(OCCC4CCCC4)cc1)C(=O)N3)C(=O)N[C@@H](CCC(N)=O)C(=O)N[C@@H](CC(C)C)C(=O)N[C@@H](CCCNC(=N)N)C(=O)N2` reads above 15 µM.
`CC(C)C[C@@H]1NC(=O)CNC(=O)[C@H](CC(C)C)NC(=O)[C@H](CO)NC(=O)[C@H](CCCCN)NC(=O)[C@@H]2CSSC[C@@H](C(=O)N[C@H](C(N)=O)C(C)C)NC(=O)[C@H](C)NC(=O)[C@@H]3CSSC[C@H](NC(=O)[C@H](Cc4ccccc4)NC(=O)[C@H](Cc4cnc[nH]4)NC(=O)[C@H](CC(C)C)NC(=O)[C@H](CC(N)=O)NC(=O)CCSSC[C@H](NC(=O)[C@H](CCCNC(=N)N)NC(=O)CNC(=O)[C@H](CC(C)C)NC1=O)C(=O)N[C@@H](C)C(=O)N1CCC[C@@H]1C(=O)N[C@@H]([C@@H](C)O)C(=O)N[C@@H](Cc1ccc(OCCc4ccccc4)cc1)C(=O)N3)C(=O)N[C@@H](CCC(N)=O)C(=O)N[C@@H](CC(C)C)C(=O)N[C@@H](CCCNC(=N)N)C(=O)N2` registered a CC50 at 48 h above 15 µM.
The compound `CC(C)C[C@@H]1NC(=O)CNC(=O)[C@H](CC(C)C)NC(=O)[C@H](CO)NC(=O)[C@H](CCCCN)NC(=O)[C@@H]2CSSC[C@@H](C(=O)N[C@H](C(N)=O)C(C)C)NC(=O)[C@H](C)NC(=O)[C@@H]3CSSC[C@H](NC(=O)[C@H](Cc4ccccc4)NC(=O)[C@H](Cc4cnc[nH]4)NC(=O)[C@H](CC(C)C)NC(=O)[C@H](CC(N)=O)NC(=O)CCSSC[C@H](NC(=O)[C@H](CCCN=C(N)N)NC(=O)CNC(=O)[C@H](CC(C)C)NC1=O)C(=O)N[C@@H](C)C(=O)N1CCC[C@@H]1C(=O)N[C@@H]([C@@H](C)O)C(=O)N[C@@H](Cc1ccc(OCCCCCO)cc1)C(=O)N3)C(=O)N[C@@H](CCC(N)=O)C(=O)N[C@@H](CC(C)C)C(=O)N[C@@H](CCCN=C(N)N)C(=O)N2` returned a CC50 at 48 h above 50 µM.
Take `CC(C)C[C@@H]1NC(=O)CNC(=O)[C@H](CC(C)C)NC(=O)[C@H](CO)NC(=O)[C@H](CCCCN)NC(=O)[C@@H]2CSSC[C@@H](C(=O)N[C@H](C(N)=O)C(C)C)NC(=O)[C@H](C)NC(=O)[C@@H]3CSSC[C@H](NC(=O)[C@H](Cc4ccccc4)NC(=O)[C@H](Cc4cnc[nH]4)NC(=O)[C@H](CC(C)C)NC(=O)[C@H](CC(N)=O)NC(=O)CCSSC[C@H](NC(=O)[C@H](CCCNC(=N)N)NC(=O)CNC(=O)[C@H](CC(C)C)NC1=O)C(=O)N[C@@H](C)C(=O)N1CCC[C@@H]1C(=O)N[C@@H]([C@@H](C)O)C(=O)N[C@@H](Cc1ccc(OCCSCCO)cc1)C(=O)N3)C(=O)N[C@@H](CCC(N)=O)C(=O)N[C@@H](CC(C)C)C(=O)N[C@@H](CCCNC(=N)N)C(=O)N2`: the 50% cytotoxic concentration (CC50) at 48 h is above 50 µM.
The result for `CC(C)C[C@@H]1NC(=O)CNC(=O)[C@H](CC(C)C)NC(=O)[C@H](CO)NC(=O)[C@H](CCCCN)NC(=O)[C@@H]2CSSC[C@@H](C(=O)N[C@H](C(N)=O)C(C)C)NC(=O)[C@H](C)NC(=O)[C@@H]3CSSC[C@H](NC(=O)[C@H](Cc4ccccc4)NC(=O)[C@H](Cc4cnc[nH]4)NC(=O)[C@H](CC(C)C)NC(=O)[C@H](CC(N)=O)NC(=O)CCSSC[C@H](NC(=O)[C@H](CCCN=C(N)N)NC(=O)CNC(=O)[C@H](CC(C)C)NC1=O)C(=O)N[C@@H](C)C(=O)N1CCC[C@@H]1C(=O)N[C@@H]([C@@H](C)O)C(=O)N[C@@H](Cc1ccc(NCC4CCCCC4)cc1)C(=O)N3)C(=O)N[C@@H](CCC(N)=O)C(=O)N[C@@H](CC(C)C)C(=O)N[C@@H](CCCN=C(N)N)C(=O)N2` reads above 40 µM.

A word on the CC50: it is the concentration at which the toxic effect on the cells reaches its halfway point. A low value points to greater toxicity to the cells.

The values are drawn from ChEMBL document CHEMBL2396622, “Interfacial cavity filling to optimize CD4-mimetic miniprotein interactions with HIV-1 surface glycoprotein” (J Med Chem, 2013).
